Results reported in PubChem BioAssay (NCI).
Some of these compounds have results that are not shown, active ones among them.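 Assay format: 96-well plates, 48-hour exposure. Abbreviation: GI50, concentration required for 50% inhibition of growth.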

Tests used:
Assay in all cases: NCI anticancer screen, dose series, 48 h; in the data active means GI50 below about 0.43 µM; inactive means the rest
UO-31 renal = system: UO-31 renal
A549 NSCLC = system: A549 NSCLC
RPMI-8226 leukemia = system: RPMI-8226 leukemia
BT-549 breast = system: BT-549 breast
EKVX NSCLC = system: EKVX NSCLC
OVCAR-4 ovarian = system: OVCAR-4 ovarian
NCI-H226 lung = system: NCI-H226 lung
NCI-H522 lung = system: NCI-H522 lung
IGROV1 ovarian = system: IGROV1 ovarian
HCC-2998 colon = system: HCC-2998 colon
UACC-62 melanoma = system: UACC-62 melanoma
K-562 leukemia = system: K-562 leukemia
HCT-15 colon = system: HCT-15 colon
SNB-19 CNS = system: SNB-19 CNS
SK-MEL-2 melanoma = system: SK-MEL-2 melanoma
NCI/ADR-RES ovarian = system: NCI/ADR-RES ovarian
COLO 205 colon = system: COLO 205 colon
HT29 colon = system: HT29 colon
HOP-62 NSCLC = system: HOP-62 NSCLC
NCI-H23 lung = system: NCI-H23 lung
A498 renal = system: A498 renal
CCRF-CEM leukemia = system: CCRF-CEM leukemia
M14 melanoma = system: M14 melanoma
LOX IMVI melanoma = system: LOX IMVI melanoma
SK-MEL-28 melanoma = system: SK-MEL-28 melanoma
SW-620 colon = system: SW-620 colon
UACC-257 melanoma = system: UACC-257 melanoma
NCI-H322M lung = system: NCI-H322M lung
T-47D breast = system: T-47D breast
SF-268 CNS = system: SF-268 CNS
SNB-75 CNS = system: SNB-75 CNS
MDA-MB-435 = system: MDA-MB-435
HS 578T breast = system: HS 578T breast
MALME-3M melanoma = system: MALME-3M melanoma
SK-MEL-5 melanoma = system: SK-MEL-5 melanoma
SK-OV-3 ovarian = system: SK-OV-3 ovarian
ACHN renal = system: ACHN renal
786-0 renal = system: 786-0 renal
DU-145 prostate = system: DU-145 prostate
SR leukemia = system: SR leukemia
SN12C renal = system: SN12C renal
NCI-H460 lung = system: NCI-H460 lung
U251 CNS = system: U251 CNS
MDA-N = system: MDA-N
RXF 393 renal = system: RXF 393 renal
SF-295 CNS = system: SF-295 CNS
MOLT-4 leukemia = system: MOLT-4 leukemia
KM12 colon = system: KM12 colon
MCF7 breast = system: MCF7 breast
TK-10 renal = system: TK-10 renal
PC-3 prostate = system: PC-3 prostate
OVCAR-5 ovarian = system: OVCAR-5 ovarian
HL-60(TB) leukemia = system: HL-60(TB) leukemia
OVCAR-3 ovarian = system: OVCAR-3 ovarian
HCT-116 colon = system: HCT-116 colon
OVCAR-8 ovarian = system: OVCAR-8 ovarian

Measured: GI50

CC#CC(O)(C(=O)OC1CCN(C)CC1)c1ccccn1 (stereo unspecified)
inactive: UO-31 renal > 100 µM | A549 NSCLC > 100 µM | RPMI-8226 leukemia 78.7 µM | BT-549 breast > 100 µM | EKVX NSCLC 11.8 µM | OVCAR-4 ovarian 44.4 µM | NCI-H226 lung > 100 µM | NCI-H522 lung > 100 µM | IGROV1 ovarian > 100 µM | HCC-2998 colon > 100 µM | UACC-62 melanoma 52 µM | K-562 leukemia 23.4 µM | HCT-15 colon 74.3 µM | SNB-19 CNS > 100 µM | SK-MEL-2 melanoma > 100 µM | NCI/ADR-RES ovarian 75 µM | COLO 205 colon > 100 µM | HT29 colon 77.5 µM | HOP-62 NSCLC 85.7 µM | NCI-H23 lung > 100 µM | A498 renal > 100 µM | CCRF-CEM leukemia 25.7 µM | M14 melanoma > 100 µM | LOX IMVI melanoma 20.9 µM | SK-MEL-28 melanoma > 100 µM | SW-620 colon 49.1 µM | UACC-257 melanoma > 100 µM | NCI-H322M lung > 100 µM | T-47D breast > 100 µM | SF-268 CNS 46.6 µM | SNB-75 CNS 89.3 µM | MDA-MB-435 = 21.3 µM | HS 578T breast 32.8 µM | MALME-3M melanoma > 100 µM | SK-MEL-5 melanoma > 100 µM | SK-OV-3 ovarian > 100 µM | ACHN renal > 100 µM | 786-0 renal 51.8 µM | DU-145 prostate > 100 µM | SR leukemia 37.4 µM | SN12C renal 24.7 µM | NCI-H460 lung > 100 µM | U251 CNS > 100 µM | MDA-N 33.6 µM | RXF 393 renal > 100 µM | SF-295 CNS > 100 µM | MOLT-4 leukemia 32.6 µM | KM12 colon > 100 µM | MCF7 breast 54.6 µM | TK-10 renal > 100 µM | PC-3 prostate > 100 µM | OVCAR-5 ovarian > 100 µM | HL-60(TB) leukemia > 100 µM | OVCAR-3 ovarian 38.7 µM | HCT-116 colon 74.3 µM | OVCAR-8 ovarian 46.1 µM
